# CycPeptMPDB entries from one study

Source: CycPeptMPDB (Li et al. 2023), which took these values from Townsend et al. 2020, doi:10.26434/chemrxiv.13335941.v1.

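The data file gives no further conditions (lipid, pH, time, direction or concentration), and values from different papers need not be comparable. The list need not hold all peptides of the study. Entries at the database's floor value (log10 P of -10) are not listed.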

PAMPA measures passive passage through an artificial lipid membrane.
Permeability is in 10^-6 cm/s, converted from the database's log10 values; higher is more permeable.

SMILES	PAMPA (10^-6 cm/s)
CCCN1CC(=O)N[C@H](CC(C)C)C(=O)N[C@@H](Cc2ccccc2)CC(=O)N2CCC[C@@H]2C(=O)N[C@H](CC(C)C)C(=O)N[C@@H](Cc2ccccc2)C(=O)N2CCC[C@@H]2C1=O	1.7
CC(C)C[C@H]1NC(=O)[C@H]2CCCN2C(=O)CN(Cc2ccccc2)C(=O)[C@H](CC(C)C)N(C)C(=O)[C@@H](C)N(C)C(=O)[C@H](Cc2ccccc2)NC1=O	3
CC(C)C[C@H]1NC(=O)C[C@H](Cc2ccccc2)NC(=O)[C@@H]2CCCN2C(=O)[C@H](Cc2ccccc2)NC(=O)CN(Cc2ccccc2)C(=O)[C@@H]2CCCN2C(=O)[C@@H](CC(C)C)NC1=O	1.3
CCCN1CC(=O)N(C)[C@H](CC(C)C)C(=O)N[C@@H](Cc2ccccc2)CC(=O)N2CCC[C@@H]2C(=O)N[C@H](CC(C)C)C(=O)N[C@@H](Cc2ccccc2)C(=O)N2CCC[C@@H]2C1=O	1.6
CC(C)C[C@@H]1NC(=O)[C@H](CC(C)C)N(C)C(=O)[C@@H](C)NC(=O)[C@H]2CCCN2C(=O)[C@H](Cc2ccccc2)NC(=O)[C@H](CC(C)C)N(C)C(=O)[C@H]2CCCN2C1=O	1.9
CC(C)C[C@@H]1NC(=O)C[C@H](Cc2ccccc2)NC(=O)[C@H](Cc2ccccc2)NC(=O)[C@@H](CC(C)C)NC(=O)[C@@H]2CCCN2C(=O)C[C@H](Cc2ccccc2)NC1=O	1.9
CC(C)C[C@@H]1NC(=O)[C@@H]2CCCN2C(=O)[C@@H](CC(C)C)NC(=O)[C@@H](CC(C)C)NC(=O)C[C@H](Cc2ccccc2)NC(=O)[C@H]2CCCN2C(=O)[C@H](Cc2ccccc2)NC1=O	1.6
CCCN1CC(=O)N[C@@H](CC(C)C)C(=O)N(C)[C@H](CC(C)C)C(=O)N2CCC[C@@H]2C(=O)N(Cc2ccccc2)CC(=O)N[C@@H](Cc2ccccc2)C(=O)N2CCC[C@@H]2C1=O	3
CC(C)C[C@@H]1C(=O)N[C@@H](Cc2ccccc2)C(=O)N[C@H](C)C(=O)N[C@H](CC(C)C)C(=O)N(Cc2ccccc2)CC(=O)N2CCC[C@@H]2C(=O)N1C	0.81
CCCN1CC(=O)N[C@H](CC(C)C)C(=O)N[C@H](CC(C)C)C(=O)N2CCC[C@H]2C(=O)N(Cc2ccccc2)CC(=O)N[C@@H](Cc2ccccc2)C(=O)N2CCC[C@@H]2C1=O	1
CCCN1CC(=O)N[C@H](CC(C)C)C(=O)N[C@@H](Cc2ccccc2)CC(=O)N2CCC[C@H]2C(=O)N(C)[C@H](CC(C)C)C(=O)N[C@@H](Cc2ccccc2)C(=O)N2CCC[C@@H]2C1=O	1.3
CC(C)C[C@@H]1NC(=O)[C@@H]2CCCN2C(=O)CN(Cc2ccccc2)C(=O)[C@H](CC(C)C)NC(=O)[C@H](C)NC(=O)[C@H]2CCCN2C(=O)[C@H](Cc2ccccc2)NC1=O	0.68
CC(C)C[C@@H]1C(=O)N2CCC[C@H]2C(=O)N(C)[C@H](CC(C)C)C(=O)N[C@@H](Cc2ccccc2)C(=O)N[C@@H](Cc2ccccc2)CC(=O)N(C)[C@@H](CC(C)C)C(=O)N1C	5.1

2 of these entries, quoted again:

{"smiles": "CC(C)C[C@@H]1C(=O)N2CCC[C@H]2C(=O)N(C)[C@H](CC(C)C)C(=O)N[C@@H](Cc2ccccc2)C(=O)N[C@@H](Cc2ccccc2)CC(=O)N(C)[C@@H](CC(C)C)C(=O)N1C", "PAMPA (10^-6 cm/s)": "5.1"}
{"smiles": "CC(C)C[C@@H]1NC(=O)[C@@H]2CCCN2C(=O)CN(Cc2ccccc2)C(=O)[C@H](CC(C)C)NC(=O)[C@H](C)NC(=O)[C@H]2CCCN2C(=O)[C@H](Cc2ccccc2)NC1=O", "PAMPA (10^-6 cm/s)": "0.68"}